Experiment [1] addresses T1, human ILT2 extracellular and transmembrane domains expressed on CHO cells (human, UniProt Q8NHL6, in part).
T1 construct: domain: extracellular and transmembrane domains; which one is told under assay; also called CHO cells expressing human ILT2 (relatively low or relatively high level); CHO-ILT2 cells
The experiment is described as follows: flow cytometry, CHO cells with high human ILT2. How it is done: For the antibody binding assay, the cells were seeded in a 96-well U-bottom tissue culture plate at a density of 3×10⁵ cells per well in 25 μL of PBS supplemented with 0.5% BSA, 1 mM EDTA and 0.05% sodium azide (FACS Buffer). The cells were incubated for 30 minutes at 4° C. with […] of a series dilution of anti-ILT2 antibodies or isotype control at concentrations from 10 μg/mL to 2.4 ng/mL in FACS Buffer.
After a 30-minute incubation in the dark at 4° C., the cells were washed twice with cold FACS Buffer, and the cells were analyzed by flow cytometry (BD LSR Fortessa Flow Cytometer). CHO-ILT2 cells were identified and MFI was calculated as above.
For orientation: In flow cytometry, cells or beads pass a laser one at a time.

Chains of the proteins cited; added tags and fusions are not shown. A line that says so, or that is headed by a name, gives the form on record, which may keep a tag or linker. Residues count along the entry.
UniProt Q8NHL6, 24-482 limits assumed: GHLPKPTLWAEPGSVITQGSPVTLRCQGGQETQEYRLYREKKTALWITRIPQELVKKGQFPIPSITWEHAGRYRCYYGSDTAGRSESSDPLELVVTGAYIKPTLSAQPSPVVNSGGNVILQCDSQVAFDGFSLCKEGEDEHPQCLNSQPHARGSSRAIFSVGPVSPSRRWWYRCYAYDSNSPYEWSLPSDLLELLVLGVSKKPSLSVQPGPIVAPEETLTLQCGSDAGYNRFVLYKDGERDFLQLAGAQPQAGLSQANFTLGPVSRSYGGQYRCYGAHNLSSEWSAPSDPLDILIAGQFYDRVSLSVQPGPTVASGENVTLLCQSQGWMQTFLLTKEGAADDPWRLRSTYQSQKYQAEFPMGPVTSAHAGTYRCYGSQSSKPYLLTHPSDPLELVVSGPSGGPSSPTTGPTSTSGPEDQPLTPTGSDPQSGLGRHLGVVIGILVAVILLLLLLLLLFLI
UniProt Q8NHL6, 24-458: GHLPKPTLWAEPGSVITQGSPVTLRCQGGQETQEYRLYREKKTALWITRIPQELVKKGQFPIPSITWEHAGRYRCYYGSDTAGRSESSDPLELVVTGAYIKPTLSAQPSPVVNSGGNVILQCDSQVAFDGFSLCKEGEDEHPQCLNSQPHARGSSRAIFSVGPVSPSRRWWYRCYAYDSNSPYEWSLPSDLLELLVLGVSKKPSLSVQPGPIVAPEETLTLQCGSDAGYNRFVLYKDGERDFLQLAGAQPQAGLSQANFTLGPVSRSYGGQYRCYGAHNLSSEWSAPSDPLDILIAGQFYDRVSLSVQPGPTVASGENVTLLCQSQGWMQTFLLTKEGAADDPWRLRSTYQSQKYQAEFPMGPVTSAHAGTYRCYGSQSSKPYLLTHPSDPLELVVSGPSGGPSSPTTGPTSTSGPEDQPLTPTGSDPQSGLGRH
ECD-His tagged human ILT2 haplotype PE03, UniProt Q8NHL6, other isoform, or with tags, fused parts or gaps: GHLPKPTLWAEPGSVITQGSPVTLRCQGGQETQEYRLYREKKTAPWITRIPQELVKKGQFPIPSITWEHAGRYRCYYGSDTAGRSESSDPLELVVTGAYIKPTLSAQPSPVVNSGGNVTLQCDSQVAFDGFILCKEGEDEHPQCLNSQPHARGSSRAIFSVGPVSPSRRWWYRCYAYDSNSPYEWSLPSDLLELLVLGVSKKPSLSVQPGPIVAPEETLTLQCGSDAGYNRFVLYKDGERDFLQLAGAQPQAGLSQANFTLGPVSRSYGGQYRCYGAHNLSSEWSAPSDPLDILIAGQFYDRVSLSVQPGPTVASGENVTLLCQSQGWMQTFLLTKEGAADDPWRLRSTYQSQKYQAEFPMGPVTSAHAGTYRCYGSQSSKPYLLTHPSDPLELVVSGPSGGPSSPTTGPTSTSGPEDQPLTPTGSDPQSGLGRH
ECD-His tagged human ILT2 haplotype PE02, UniProt Q8NHL6, other isoform, or with tags, fused parts or gaps: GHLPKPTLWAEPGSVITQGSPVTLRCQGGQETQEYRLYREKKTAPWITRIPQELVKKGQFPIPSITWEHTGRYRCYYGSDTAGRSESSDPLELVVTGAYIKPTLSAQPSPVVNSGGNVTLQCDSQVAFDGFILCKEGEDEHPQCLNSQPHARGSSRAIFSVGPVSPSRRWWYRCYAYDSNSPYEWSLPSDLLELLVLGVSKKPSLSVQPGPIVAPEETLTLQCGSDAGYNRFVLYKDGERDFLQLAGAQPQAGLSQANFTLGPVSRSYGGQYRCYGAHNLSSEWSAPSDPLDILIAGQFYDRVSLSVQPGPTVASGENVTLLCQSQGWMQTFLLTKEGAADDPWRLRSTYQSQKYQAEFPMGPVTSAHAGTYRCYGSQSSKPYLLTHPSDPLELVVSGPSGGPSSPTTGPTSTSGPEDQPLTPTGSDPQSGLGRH
UniProt Q8NHL6, 24-650: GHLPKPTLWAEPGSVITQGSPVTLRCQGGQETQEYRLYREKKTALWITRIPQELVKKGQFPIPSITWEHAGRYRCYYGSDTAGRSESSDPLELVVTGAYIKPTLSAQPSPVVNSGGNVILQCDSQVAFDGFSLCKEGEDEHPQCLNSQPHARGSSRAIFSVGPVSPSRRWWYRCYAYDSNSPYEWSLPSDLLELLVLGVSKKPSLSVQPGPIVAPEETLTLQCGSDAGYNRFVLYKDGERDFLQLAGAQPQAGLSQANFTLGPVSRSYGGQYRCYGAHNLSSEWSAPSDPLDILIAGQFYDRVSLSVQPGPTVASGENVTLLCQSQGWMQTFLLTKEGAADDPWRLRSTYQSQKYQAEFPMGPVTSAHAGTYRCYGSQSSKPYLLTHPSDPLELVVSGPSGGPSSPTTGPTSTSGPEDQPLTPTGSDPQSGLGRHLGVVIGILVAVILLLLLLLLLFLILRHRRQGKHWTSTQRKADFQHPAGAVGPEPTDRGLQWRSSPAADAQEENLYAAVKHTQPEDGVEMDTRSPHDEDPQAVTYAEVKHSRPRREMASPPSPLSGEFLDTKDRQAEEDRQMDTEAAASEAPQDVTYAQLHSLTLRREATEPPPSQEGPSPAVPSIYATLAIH

For experiment [2], the target named is T2, ECD-His tagged human ILT2 haplotype PE01 (human, UniProt Q8NHL6, in part).
T2 construct: also called Human ILT2 PE01 ECD; LILRB1/ILT2 PE01; not shown: His tag
The experiment is described as follows: SPR, ILT2 PE01 ECD-His, average of two measurements. How it is done: (§1) Briefly, SPR experiments were performed using a Biacore T200 instrument, and the association rate (Kₐ), dissociation rate (Kd), and dissociation constant (KD) were calculated from each experiment using a 1:1 binding model with Biacore™ T200 Evaluation Software. Capture of antibodies from the Human Fab Capture kit (28958325, GE Healthcare) to the Series S CM5 sensor chip (29149603, GE Healthcare) was performed using the immobilization wizard for amine coupling from the Biacore™ control panel and following the manufacturer's recommendations included with the kit.
Variants of irrelevant antibody VRC01 (with IgG1, IgG1 N297A, IgG4 S228P, IgG2, or IgG2 C127S constant regions) were used as negative isotype controls. The binding kinetics are shown in Table 5 as an average from two independent measurements.

In experiment [3] the target is T3, ECD-His tagged human ILT2 haplotype PE03 (human, UniProt Q8NHL6, in part).
T3 construct: also called Human ILT2 PE03 ECD (Sino biological, 16014-H08H); not shown: His tag
Kind of experiment: SPR, captured antibody, ILT2 ECD-His analyte. The procedure:
(§2) The binding affinity of anti-ILT2 antibody variants with IgG1 N297A constant regions to ECD-His tagged human ILT2 haplotypes PE01, PE02, PE03 (see Table 1) was assessed by surface plasmon resonance (SPR).
as §1
(§3) Approximately 3 μg/mL of tested anti-ILT2 antibodies and controls diluted in a running buffer (10 mM HEPES, 150 mM NaCl, 3 mM EDTA, and 0.05% surfactant P20) were captured in individual flow cells of previously prepared anti Human Fab CM5 chip, keeping a single flow cell as a reference. Antibodies were captured using a 30 sec injection at a flow rate of 10 μL/min to reach about 150 resonance units (Rus). Human ILT2 ECD PE01 (diluted in the running buffer at the concentration of 30, 10, 3.3, 1.11, 0.37, 0.12 nM), and human ILT2 ECD PE02 and PE03 (diluted in the running buffer at the concentration of 33.3, 11.1, 3.7, 1.2, 0.41, 0.14 nM), were flowed over the chip surface at a flow rate of 30 μL/min with a 3-min association phase and a 10-min dissociation phase. The sensor chip was regenerated between cycles with a double 30-sec injection of 10 mM glycine, pH 2.1 at 30 μL/min followed by stabilization period of 60s. Sensorgrams were evaluated and fit to a simple Langmuir 1:1 interaction model using the global data analysis option of BIAevaluation 3.1 software. Data quality was verified by visually inspecting deviations and curve fitting, and by evaluating the parameters of Rₘₐₓ, Chi2, and Tc.

Experiment [4] deals with T2, ECD-His tagged human ILT2 haplotype PE01. Kind of experiment: SPR, captured antibody, ILT2 ECD-His analyte. The procedure:
as §2, §1, §3
(Surface plasmon resonance follows binding to a sensor surface in real time, without labels.)

Experiment [5] concerns the target T4, ECD-His tagged human ILT2 haplotype PE02 (human, UniProt Q8NHL6, in part).
T4 construct: also called Human ILT2 PE02 ECD; not shown: His tag
The experiment is described as follows: SPR, captured antibody, ILT2 ECD-His analyte. How it is done:
as §2, §1, §3

Experiment [6] addresses T1, human ILT2 extracellular and …. The experiment is described as follows: flow cytometry, CHO cells with low human ILT2. How it is done: For the antibody binding assay, the cells were seeded in a 96-well U-bottom tissue culture plate at a density of 3×10⁵ cells per well in 25 μL of PBS supplemented with 0.5% BSA, 1 mM EDTA and 0.05% sodium azide (FACS Buffer). The cells were incubated for 30 minutes at 4° C. with 25 μL of a series dilution of anti-ILT2 antibodies or isotype control, at final concentrations ranging from 10 μg/mL to 0.2 ng/mL in FACS Buffer.
After a 30-minute incubation in the dark at 4° C., the cells were washed twice with cold FACS Buffer, and the cells were analyzed by flow cytometry (BD LSR Fortessa Flow Cytometer). CHO cells were identified using a plot of forward scatter-area (FSC-A) versus side scatter area (SSC-A) and another plot of FSC-A versus forward scatter-height (FSC-H) for selection of single cells. Samples were analyzed by sequentially gating on the single cell population and plotting histograms representing the fluorescence in the PE channel. For each sample, mean fluorescence intensity (MFI) was calculated, and the data were plotted by GraphPad Prism software.

In experiment [7] the target is T5, full-length ILT2 expressed on Jurkat cells (human, UniProt Q8NHL6).
T5 construct: whole, on cells; The Jurkat line also carries FcgRIIIa and an NFAT-luciferase reporter (Promega/G7102); also called Jurkat cells expressing human ILT2; ILT2-expressing Jurkat reporter cells
Kind of experiment: flow cytometry, Jurkat cells expressing human ILT2.

In general, EC50 refers to the concentration needed to bring the measured effect to its halfway point. High values mean a less potent agent, low ones a more potent agent. One may read the Kd as a measure of binding affinity in units of concentration. Low values mean higher affinity, high ones lower affinity. What is called koff is a measure of how fast the partners let go of each other. Low values mean slow dissociation, high ones fast dissociation. As usually defined, the kon is a measure of how fast the partners come together.

B1: BA222 (antibody, human IgG4 S228P, kappa)
heavy: QVQLVQSGAEVKKPGASVKVSCKASGYTFNRYYMHWVRQAPGQGLEWMGWINPYTGGTNYAQKFQGRVTMTRDTSISTAYMELSRLRSDDTAVYYCASKQPSSDYWGQGTLVTVSSASTKGPSVFPLAPCSRSTSESTAALGCLVKDYFPEPVTVSWNSGALTSGVHTFPAVLQSSGLYSLSSVVTVPSSSLGTKTYTCNVDHKPSNTKVDKRVESKYGPPCPPCPAPEFLGGPSVFLFPPKPKDTLMISRTPEVTCVVVDVSQEDPEVQFNWYVDGVEVHNAKTKPREEQFNSTYRVVSVLTVLHQDWLNGKEYKCKVSNKGLPSSIEKTISKAKGQPREPQVYTLPPSQEEMTKNQVSLTCLVKGFYPSDIAVEWESNGQPENNYKTTPPVLDSDGSFFLYSRLTVDKSRWQEGNVFSCSVMHEALHNHYTQKSLSLSLGK
light: DIVMTQSPLSLPVTPGEPASISCRSSQSLLHSNYYNYLDWYLQKPGQSPQLLIYLGSNRASGVPDRFSGSGSGTDFTLKISRVEAEDVGVYYCLQASQAPWTFGQGTKVEIKRTVAAPSVFIFPPSDEQLKSGTASVVCLLNNFYPREAKVQWKVDNALQSGNSQESVTEQDSKDSTYSLSSTLTLSKADYEKHKVYACEVTHQGLSSPVTKSFNRGEC
In experiment [1], B1 came in with an AUC of 373000 and an EC50 of 0.115 µg/mL. In experiment [2], this molecule displayed a Kd of 0.065 nM, a koff of 5.1e-05 s⁻¹ and a kon of 970000 M⁻¹ s⁻¹.

B2: BA249 (antibody, human IgG1, kappa)
heavy: QVQLVQSGAEVKKPGASVKVSCKASGYTFNRYYMHWVRQAPGQGLEWMGWINPYTGGTNYAQKFQGRVTMTRDTSISTAYMELSRLRSDDTAVYYCASKQPSSDYWGQGTLVTVSSASTKGPSVFPLAPSSKSTSGGTAALGCLVKDYFPEPVTVSWNSGALTSGVHTFPAVLQSSGLYSLSSVVTVPSSSLGTQTYICNVNHKPSNTKVDKRV[letters of human IgG1 Fc omitted]
light: DIVMTQSPLSLPVTPGEPASISCRSSQSLLHSNTYNYLDWYLQKPGQSPQLLIYLGSNRASGVPDRFSGSGSGTDFTLKISRVEAEDVGVYYCLQASQAPWTFGQGTKVEIKRTVAAPSVFIFPPSDEQLKSGTASVVCLLNNFYPREAKVQWKVDNALQSGNSQESVTEQDSKDSTYSLSSTLTLSKADYEKHKVYACEVTHQGLSSPVTKSFNRGEC
In experiment [1], B2 showed an AUC of 349000 and an EC50 of 0.117 µg/mL. In experiment [2], this molecule showed a Kd of 0.13 nM, a koff of 4.8e-05 s⁻¹ and a kon of 380000 M⁻¹ s⁻¹.

B3: BA250 (antibody, human IgG1, kappa)
heavy: QVQLVQSGAEVKKPGASVKVSCKASGYTFNRYYMHWVRQAPGQGLEWMGWINPYTGGTNYAQKFQGRVTMTRDTSISTAYMELSRLRSDDTAVYYCASKQPSSDYWGQGTLVTVSSASTKGPSVFPLAPSSKSTSGGTAALGCLVKDYFPEPVTVSWNSGALTSGVHTFPAVLQSSGLYSLSSVVTVPSSSLGTQTYICNVNHKPSNTKVDKRV[letters of human IgG1 Fc omitted]
light: DIVMTQSPLSLPVTPGEPASISCRSSQSLLHSNYYNYLDWYLQKPGQSPQLLIYLGSNRASGVPDRFSGSGSGTDFTLKISRVEAEDVGVYYCLQASQAPWTFGQGTKVEIKRTVAAPSVFIFPPSDEQLKSGTASVVCLLNNFYPREAKVQWKVDNALQSGNSQESVTEQDSKDSTYSLSSTLTLSKADYEKHKVYACEVTHQGLSSPVTKSFNRGEC
In experiment [1], B3 gave an AUC of 384000 and an EC50 of 0.087 µg/mL. In experiment [2], the Kd was 0.11 nM, the koff amounted to 4.8e-05 s⁻¹ and the kon came to 430000 M⁻¹ s⁻¹.

B4: BA215 (antibody, human IgG1, kappa)
heavy: QVQLVQSGAEVKKPGASVKVSCKASGYTFNRYYMHWVRQAPGQGLEWMGWINPYTGGTNYAQKFQGRVTMTRDTSISTAYMELSRLRSDDTAVYYCASKQPSSDYWGQGTLVTVSSASTKGPSVFPLAPSSKSTSGGTAALGCLVKDYFPEPVTVSWNSGALTSGVHTFPAVLQSSGLYSLSSVVTVPSSSLGTQTYICNVNHKPSNTKVDKRV[letters of human IgG1 Fc with changes omitted]
light: DIVMTQSPLSLPVTPGEPASISCRSSQSLLHSNYYNYLDWYLQKPGQSPQLLIYLGSNRASGVPDRFSGSGSGTDFTLKISRVEAEDVGVYYCLQASQAPWTFGQGTKVEIKRTVAAPSVFIFPPSDEQLKSGTASVVCLLNNFYPREAKVQWKVDNALQSGNSQESVTEQDSKDSTYSLSSTLTLSKADYEKHKVYACEVTHQGLSSPVTKSFNRGEC
Turning to B4, the Kd in experiment [3] came to 0.216 nM; in experiment [4], 0.003 nM; in experiment [5], 0.541 nM; in experiment [2] it was 0.13 nM. Moreover, the koff in experiment [3] worked out at 0.00011 s⁻¹; in experiment [4] it was 9.6e-07 s⁻¹; in experiment [5], 0.00012 s⁻¹; in experiment [2] it was 5.4e-05 s⁻¹. In addition, the kon is 490000 M⁻¹ s⁻¹ in experiment [3], 280000 M⁻¹ s⁻¹ in experiment [4], 230000 M⁻¹ s⁻¹ in experiment [5] and 430000 M⁻¹ s⁻¹ in experiment [2]. The values for the AUC in experiment [6], in experiment [7] and in experiment [1] were 14300, 173000 and 392000, respectively. Also, the EC50 in experiment [6] is 0.449 µg/mL; in experiment [7] it was 0.096 µg/mL; in experiment [1], 0.082 µg/mL.

The values are drawn from patent US20250109201A1 (AGENUS, published 2025).
